System: K562 cells

| Substance | binding to parental K562 cells (in words) |
| --- | --- |
| biotin-NCVPNLRGDLQVLAQKVACTK-amide [C2C19 DFBP] | significantly bound to parental K562 cells at high concentrations |
| biotin-CAVPNLRGDLQVLAQKVACTK-amide [C1C19 DFBP] | significantly bound to parental K562 cells at high concentrations |
